Experimental data: patent US10196357B2, “Biaryl compositions and methods for modulating a kinase cascade” (Athenex, Inc., priority 2007, dated 2019)

System: WRL-68
Assay: MTT growth inhibition, WRL-68
Format: cell-based
Conditions: Homo sapiens, WRL68, 78 h
Description: Samples of the test compounds were formulated in 100% DMSO to obtain 20 mM stock solutions; stored @ 4° C. The IC50s and IC80s were determined as described below. Huh7, WRL-68, PLC/PRF/5, Hep 3B, and Hep G2 human cancer lines were routinely cultured and maintained in a basal medium containing 2% FBS @ 37° C., 5% CO2. […] The assay medium was basal medium/1.5% FBS. Cells were cultured overnight in 96-well plates at 37° C., 5% CO2 prior to KX2-391. MSA and Dasatinib addition. […] 10 μL of 20× dilutions were added to the appropriate wells (n=3) containing 190 μL cancer cell line; 6561 nM to 0.012 nM range of final concentrations. Vehicle control contained cells, no sample. Medium control contained cells, no sample, 0.03% DMSO (highest DMSO concentration present in samples). […] On day 3, 10 μL MTT (5 mg/mL) were added to each well. Cells were incubated in the presence of MTT for 4 hours @ 37° C., 5% CO2. […] Cells were then incubated overnight @ 37°, 5% CO2. OD570 measurements were taken using BioTek Synergy HT multiplatform microplate reader. Growth inhibition curves IC50s and IC80s were determined using GraphPad Prism 5 statistical software.

With `Cc1nc(Nc2ncc(C(=O)Nc3c(C)cccc3Cl)s2)cc(N2CCN(CCO)CC2)n1` [Dasatinib, reference compound] the IC50 was 5.65 µM.
